{
  "source": "paper PMC8717895",
  "about": "(Neuro-oncology Advances, 2021)",
  "key": {"[1]": {"type": "in vivo, human", "conditions": "stratum A"}, "[2]": {"assay": "Serum pharmacokinetics, stratum A", "type": "in vivo, human"}},
  "note": "Like-named read-outs stand apart in the source and are kept apart here.",
  "data": [
    {"smiles": "CC1(COc2ccc3c(c2)ncn3-c2ccc3cccc(N4CCC(N)CC4)c3n2)COC1", "note": "[crenolanib]", "values": [
      {"measurement": "Fatigue/lethargy", "setting": "[1]; Level 1 (100 mg/m^2), Grade 1/2", "result": 0},
      {"measurement": "Fatigue/lethargy", "setting": "[1]; Level 1 (100 mg/m^2), Grade 3/4", "result": 0},
      {"measurement": "Fatigue/lethargy", "setting": "[1]; Level 2 (130 mg/m^2), Grade 1/2", "result": 0},
      {"measurement": "Fatigue/lethargy", "setting": "[1]; Level 2 (130 mg/m^2), Grade 3/4", "result": 0},
      {"measurement": "Fatigue/lethargy", "setting": "[1]; Level 3 (170 mg/m^2), Grade 1/2", "result": "3 (50%)"},
      {"measurement": "Fatigue/lethargy", "setting": "[1]; Level 3 (170 mg/m^2), Grade 3/4", "result": 0},
      {"measurement": "Fatigue/lethargy", "setting": "[1]; Level 4 (220 mg/m^2), Grade 1/2", "result": 0},
      {"measurement": "Fatigue/lethargy", "setting": "[1]; Level 4 (220 mg/m^2), Grade 3/4", "result": 0},
      {"measurement": "CL/F", "setting": "[2]; stratum A1 (whole tablets), 100 mg/m^2, D1, median (range)", "result": "26.2 (14.3–49.7) L/h/m^2"},
      {"measurement": "CL/F", "setting": "[2]; stratum A1 (whole tablets), 100 mg/m^2, D28, median (range)", "result": "27.5 (17.6–59.9) L/h/m^2"},
      {"measurement": "CL/F", "setting": "[2]; stratum A2 (crushed tablets), 100 mg/m^2, D1, median (range)", "result": "32.9 (11.9–66.6) L/h/m^2"},
      {"measurement": "CL/F", "setting": "[2]; stratum A2 (crushed tablets), 100 mg/m^2, D28, median (range)", "result": "32.6 (14.4–68.0) L/h/m^2"},
      {"measurement": "CL/F", "setting": "[2]; stratum A, 130 mg/m^2, D1, median (range)", "result": "52.1 (20.6–111) L/h/m^2"},
      {"measurement": "CL/F", "setting": "[2]; stratum A, 130 mg/m^2, D28, median (range)", "result": "17.6 (13.9–59.3) L/h/m^2"},
      {"measurement": "CL/F", "setting": "[2]; stratum A, 170 mg/m^2, D1, median (range)", "result": "25.4 (15.0–62.8) L/h/m^2"},
      {"measurement": "CL/F", "setting": "[2]; stratum A, 170 mg/m^2, D28, median (range)", "result": "13.2 (6.4–27.5) L/h/m^2"},
      {"measurement": "CL/F", "setting": "[2]; stratum A, 220 mg/m^2, D1, median (range)", "result": "21.6 (7.9–98.4) L/h/m^2"},
      {"measurement": "CL/F", "setting": "[2]; stratum A, 220 mg/m^2, D28, median (range)", "result": "13.7 (4.3–60.4) L/h/m^2"}
    ]}
  ]
}
